Test results reported in US20170184604A1, “DD1ALPHA RECEPTOR AND USES THEREOF IN IMMUNE DISORDERS” (THE GENERAL HOSPITAL CORPORATION, priority 2014, published 2017).

The chains behind the UniProt entries cited, without tags or fusion partners. Residues count along the entry.
UniProt Q15116, 25-288: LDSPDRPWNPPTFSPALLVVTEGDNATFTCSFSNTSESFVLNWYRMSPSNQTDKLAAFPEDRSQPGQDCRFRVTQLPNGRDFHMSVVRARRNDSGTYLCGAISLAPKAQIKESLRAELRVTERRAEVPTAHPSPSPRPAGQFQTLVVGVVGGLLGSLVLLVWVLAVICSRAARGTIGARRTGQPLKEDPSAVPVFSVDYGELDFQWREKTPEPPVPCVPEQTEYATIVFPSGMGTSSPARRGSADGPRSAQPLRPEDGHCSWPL

What was measured:
human CD4+ T cells = assay: Human T cell activation assay (CFSE proliferation, cytokine ELISA); assay type: cell-based; conditions: plate-bound anti-CD3 3 μg/ml
Description: (§1) (FIG. 5A) DD1α inhibits the activation of human CD4+ T cells and CD8+ T cells. Enriched human CD4+ T cells and CD8+ T cells were stained with CFSE (1 μM) and stimulated with plate-bound anti-CD3 antibody (3 μg/ml) together with 2, 5, or 10 μg/ml of DD1α-Ig proteins or control Ig proteins. The proliferations of CD4+ T or CD8+ T cells were determined by the percentages of CFSE-labeled CD4+ T or CD8+ T cells at the 72-hour culture. The levels of cytokines IFN-γ and TNF-α in culture supernatant were analyzed by ELISA at the 48-hour culture. (FIG. 5B) DD1α-mediated inhibition of T cell activation is modulated by α-PD1 antibodies. […] The proliferation and cytokine production of CD4+ T cells were determined as FIG. 5A. […] The proliferations of CD4+ T cells were determined by percentage of CFSE-diluted CD4+ cells on day 3. The levels of cytokines IFN-γ and IL-2 in culture supernatant were analyzed by ELISA on day 2. […] Development of Foxp3+ iTreg cells was assessed by flow cytometric analysis of Foxp3 expression after stimulation with anti-CD3 (5 μg/ml) and anti-CD28 (2 μg/ml) plus the indicated concentrations of TGF-β together with 10 μg/ml of control Ig, DD1α-Ig or PD-L1-Ig for 3 days. […]

DD1α = assay: Ig fusion protein staining of 293T transfectants (flow cytometry); assay type: binding, human; conditions: cell surface staining
Description: (§2) The bound Ig fusion proteins were detected with anti-Ig-APC. Empty vector (pcDNA3.1)-transfected cells stained with Ig proteins are shown as a negative control (gray filled) and other staining is shown as black open. […] Purified CD4+ T cells from Wt and DD1α−/− mice were assayed for binding to Ig fused DD1α or PD1 proteins. […] The bound Ig fusion proteins were detected by anti-Ig-APC. Binding amounts were determined by percentage of APC positive cells compared to control Ig protein-bound cells. […] The bead bound proteins were eluted and determined by western blot analysis using anti-HA antibody (asterisks). […] The bead bound proteins were eluted and detected by western blot analysis with anti-DD1α or anti-PD1 antibody (asterisk). […] MCF7 cells were treated by Nutlin-3 (10 μM) for 1 to 3 days. MCF7 cells were transfected with control siRNA or p53 siRNA for 24 hours and treated with CPT (500 nM) or DMSO (control) for 1 and 2 days. The levels of indicated proteins were analyzed by western blot analysis. Total RNAs from control siRNA or p53 siRNA transfected MCF7 cells were assessed for mRNA levels of PD1 or PD-L1 by real-time quantitative PCR.

TIM-3 = target: T1, TIM-3 (Homo sapiens, UniProt Q8TDQ0); assay: as above; assay type: binding; conditions: cell surface staining
T1 construct: full length human PD-1 and Tim3 cDNA (Sino biological) were cloned into pcDNA3.1(−) tagged with HA at C-terminus; host or cells: HEK293T
Description: as §2

PD-1 = target: T2, PD-1 (Homo sapiens, UniProt Q15116); assay: as above; assay type: binding; conditions: cell surface staining
T2 construct: full length human PD-1 and Tim3 cDNA (Sino biological) were cloned into pcDNA3.1(−) tagged with HA at C-terminus; host or cells: HEK293T
Description: as §2

naïve CD4+CD62L+ T cells = assay: iTreg cell development assay; assay type: cell-based, mouse; conditions: in the presence of TGF-β
Description: as §1

binding to TIM-3 transfectants (TIM-3): not to DD1α or TIM-3 transfectants
binding to PD-1-transfected 293T cells (PD-1): bound to PD-1
Substance: PD-L1-Ig: Recombinant human or mouse PD-L1-Ig fusion protein from R&D Systems [reference compound]
proliferation of human CD4+ T cells (human CD4+ T cells; Ig control 92.2%): 48.5%
inhibition of anti-CD3-stimulated human CD4+ T cell proliferation (human CD4+ T cells; relative to Ig control (92.2% proliferation)): ~44%
binding to DD1α-transfected 293T cells (DD1α): not to DD1α or TIM-3 transfectants
iTreg cell development (naïve CD4+CD62L+ T cells): as did PD-L1-Ig
